# In PubChem BioAssay (NCI):
#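 Cultured in 96-well plates, cells were exposed to test compound for 48 hours across five concentrations. GI50 is the concentration that inhibits growth by half. TGI: concentration producing complete growth inhibition.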
# Experiments:
# Experiment in all cases: growth of human tumour cells (NCI), 48 h
# [1] = test system: RPMI-8226 leukemia
# [2] = test system: MDA-MB-435
# [3] = test system: UACC-62 melanoma
# [4] = test system: UO-31 renal
# [5] = test system: BT-549 breast
# [6] = test system: OVCAR-8 ovarian
# [7] = test system: A549 NSCLC
# [8] = test system: PC-3 prostate
# [9] = test system: A498 renal
# [10] = test system: HCT-15 colon
# [11] = test system: MALME-3M melanoma
# [12] = test system: NCI-H23 lung
# [13] = test system: RXF 393 renal
# [14] = test system: NCI-H322M lung
# [15] = test system: HS 578T breast
# [16] = test system: HOP-92 NSCLC
# [17] = test system: COLO 205 colon
# [18] = test system: SNB-19 CNS
# [19] = test system: U251 CNS
# [20] = test system: T-47D breast
# [21] = test system: SF-268 CNS
# [22] = test system: OVCAR-5 ovarian
# [23] = test system: SK-MEL-28 melanoma
# [24] = test system: SK-MEL-2 melanoma
# [25] = test system: HT29 colon
# [26] = test system: SN12C renal
# [27] = test system: MCF7 breast
# [28] = test system: MDA-N
# [29] = test system: MDA-MB-231 breast
# [30] = test system: SNB-75 CNS
# [31] = test system: SK-MEL-5 melanoma
# [32] = test system: 786-0 renal
# [33] = test system: ACHN renal
# [34] = test system: SR leukemia
# [35] = test system: HL-60(TB) leukemia
# [36] = test system: K-562 leukemia
# [37] = test system: HCT-116 colon
# [38] = test system: LOX IMVI melanoma
# [39] = test system: TK-10 renal
# [40] = test system: CAKI-1 renal
# [41] = test system: OVCAR-3 ovarian
# [42] = test system: MOLT-4 leukemia
# [43] = test system: SK-OV-3 ovarian
# [44] = test system: SF-295 CNS
# [45] = test system: IGROV1 ovarian
# [46] = test system: M14 melanoma
# [47] = test system: EKVX NSCLC
# [48] = test system: SF-539 CNS
# [49] = test system: NCI/ADR-RES ovarian
# [50] = test system: UACC-257 melanoma
# [51] = test system: NCI-H522 lung
# [52] = test system: NCI-H226 lung
# [53] = test system: OVCAR-4 ovarian
# [54] = test system: HOP-62 NSCLC
# [55] = test system: DU-145 prostate
# [56] = test system: CCRF-CEM leukemia
compound,measurement,setting,value
CCC1C(OC(=O)CC(O)(c2ccccc2)c2ccccc2)C2CCN1CC2 (configuration not stated),GI50,[1],> 100 µM
same,TGI,[1],> 100 µM
same,GI50,[2],> 100 µM
same,TGI,[2],> 100 µM
same,GI50,[3],> 100 µM
same,TGI,[3],> 100 µM
same,GI50,[4],94.4 µM
same,TGI,[4],> 100 µM
same,GI50,[5],> 100 µM
same,TGI,[5],> 100 µM
same,GI50,[6],> 100 µM
same,TGI,[6],> 100 µM
same,GI50,[7],> 100 µM
same,TGI,[7],> 100 µM
same,GI50,[8],80.5 µM
same,TGI,[8],> 100 µM
same,GI50,[9],> 100 µM
same,TGI,[9],> 100 µM
same,GI50,[10],> 100 µM
same,TGI,[10],> 100 µM
same,GI50,[11],> 100 µM
same,TGI,[11],> 100 µM
same,GI50,[12],> 100 µM
same,TGI,[12],> 100 µM
same,GI50,[13],50.9 µM
same,TGI,[13],> 100 µM
same,GI50,[14],> 100 µM
same,TGI,[14],> 100 µM
same,GI50,[15],> 100 µM
same,TGI,[15],> 100 µM
same,GI50,[16],25.9 µM
same,TGI,[16],> 100 µM
same,GI50,[17],99.6 µM
same,TGI,[17],> 100 µM
same,GI50,[18],> 100 µM
same,TGI,[18],> 100 µM
same,GI50,[19],> 100 µM
same,TGI,[19],> 100 µM
same,GI50,[20],> 100 µM
same,TGI,[20],> 100 µM
same,GI50,[21],> 100 µM
same,TGI,[21],> 100 µM
same,GI50,[22],> 100 µM
same,TGI,[22],> 100 µM
same,GI50,[23],> 100 µM
same,TGI,[23],> 100 µM
same,GI50,[24],> 100 µM
same,TGI,[24],> 100 µM
same,GI50,[25],56.5 µM
same,TGI,[25],> 100 µM
same,GI50,[26],> 100 µM
same,TGI,[26],> 100 µM
same,GI50,[27],> 100 µM
same,TGI,[27],> 100 µM
same,GI50,[28],> 100 µM
same,TGI,[28],> 100 µM
same,GI50,[29],62.6 µM
same,TGI,[29],> 100 µM
same,GI50,[30],71.1 µM
same,TGI,[30],> 100 µM
same,GI50,[31],33.3 µM
same,TGI,[31],> 100 µM
same,GI50,[32],> 100 µM
same,TGI,[32],> 100 µM
same,GI50,[33],> 100 µM
same,TGI,[33],> 100 µM
same,GI50,[34],61.2 µM
same,TGI,[34],> 100 µM
same,GI50,[35],45.6 µM
same,TGI,[35],> 100 µM
same,GI50,[36],83.9 µM
same,TGI,[36],> 100 µM
same,GI50,[37],> 100 µM
same,TGI,[37],> 100 µM
same,GI50,[38],23.7 µM
same,TGI,[38],> 100 µM
same,GI50,[39],57.4 µM
same,TGI,[39],> 100 µM
same,GI50,[40],> 100 µM
same,TGI,[40],> 100 µM
same,GI50,[41],> 100 µM
same,TGI,[41],> 100 µM
same,GI50,[42],53.6 µM
same,TGI,[42],> 100 µM
same,GI50,[43],> 100 µM
same,TGI,[43],> 100 µM
same,GI50,[44],> 100 µM
same,TGI,[44],> 100 µM
same,GI50,[45],> 100 µM
same,TGI,[45],> 100 µM
same,GI50,[46],26.7 µM
same,TGI,[46],> 100 µM
same,GI50,[47],> 100 µM
same,TGI,[47],> 100 µM
same,GI50,[48],> 100 µM
same,TGI,[48],> 100 µM
same,GI50,[49],> 100 µM
same,TGI,[49],> 100 µM
same,GI50,[50],27.8 µM
same,TGI,[50],83.5 µM
same,GI50,[51],> 100 µM
same,TGI,[51],> 100 µM
same,GI50,[52],> 100 µM
same,TGI,[52],> 100 µM
same,GI50,[53],> 100 µM
same,TGI,[53],> 100 µM
same,GI50,[54],> 100 µM
same,TGI,[54],> 100 µM
same,GI50,[55],> 100 µM
same,TGI,[55],> 100 µM
same,GI50,[56],> 100 µM
same,TGI,[56],> 100 µM
